# Antibody variant affinities, Ab-14 heavy chain, assay B

Data: MIT Lincoln Laboratory AlphaSeq set, Li et al. 2023, doi:10.1038/s41467-023-39022-2, as distributed in FLAb.

Antigen: PDVDLGDISGINAS, a 14-residue peptide of the SARS-CoV-2 spike HR2 region.

Each scFv is VH, a (GGGGS)3 linker, VL, as in the parent Ab-14, and differs from it in the CDRs of the heavy chain only.
VH: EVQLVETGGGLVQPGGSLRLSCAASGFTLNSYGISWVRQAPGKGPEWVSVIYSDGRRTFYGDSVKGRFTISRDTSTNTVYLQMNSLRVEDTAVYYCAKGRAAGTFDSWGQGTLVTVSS
VL: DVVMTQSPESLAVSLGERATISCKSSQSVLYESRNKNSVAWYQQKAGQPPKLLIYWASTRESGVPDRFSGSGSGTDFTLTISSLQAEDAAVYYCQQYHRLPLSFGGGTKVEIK

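The parent was found by panning a naive human phage display library on the peptide. This is the validation round: designs drawn from the data on random variants, tested in the same kind of assay. Several design methods are mixed in this list. The scFvs were displayed on barcoded MATa yeast, the peptide on MATalpha yeast. Mating (16 h, 30 °C) was followed by selection of diploids and sequencing of their barcodes. A regression on co-assayed BCL2-family reference pairs converts the normalised counts of each replicate to an apparent Kd. There are six technical replicates.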

Each variant is given by its three heavy chain CDRs, as the data file delimits them; those of the parent are GFTLNSYGIS, VIYSDGRRTFYGDSVK, GRAAGTFDS.
This list holds designs with at most six substitutions.
Values are log10 of the apparent Kd in nM; lower means stronger binding.
A mean of the replicates is given; it leaves out those without a signal.
An entry "nd" has no value in the source: the pair was not observed among the diploids in any replicate. This suggests poor binding but is not conclusive.

- GHTLNSYGIS, VIYADGLRTFYGGAVK, GQAAGTFDS = nd (0 of 6 replicates; controls 0 of 18)
- GFTLNSYGIS, VIYSDGMRTFYGDSVK, GRVAGTFDV = 1.12 (4 of 6 replicates; controls 0 of 18)
- GFMLNSYGIS, VIYSDGRRVFYGDRVK, GRAALTFDS = nd (0 of 6 replicates; controls 1 of 18)
- GFSLNAYGIS, VIYSDGRRTFYGDQVK, GKTAGTFDS = 0.56 (6 of 6 replicates; controls 0 of 18)
- GFTLNDYGIS, VIYSDGRRTFYSDSVK, GKAAGTFIS = nd (0 of 6 replicates; controls 0 of 18)
- GFQLNSYGIS, VIYSDGRRTFYGDSVK, GRAAGTFDV = 1.25 (5 of 6 replicates; controls 0 of 18)
- GFELNDYGIS, VIYSDGRRTFYGDSVK, GRHAGTFDS = 1.22 (4 of 6 replicates; controls 0 of 18)
- GFSLNQYGIS, VIYSDGRRTFYSDSVK, GQAAGTFDS = 0.00 (6 of 6 replicates; controls 0 of 18)
- GFTLNSYGIS, VIYSDGKRTFYADSVK, GRQAGTFDS = 0.49 (6 of 6 replicates; controls 1 of 18)
- GFTLNSYGIS, VIYSDGQRTFYADDVK, GQAAGTFDL = 0.57 (6 of 6 replicates; controls 0 of 18)
- GFTLNSYGVS, VIYSDGRRTFYIDSVK, GTTAGTFDS = 0.64 (6 of 6 replicates; controls 1 of 18)
- GFHLNSYGIS, VIYSDGRRTFYIDSVK, GRVAGTFDS = 2.10 (2 of 6 replicates; controls 1 of 18)
- GFTLNSYGIS, VIYSDGRRTFYEDSVK, GQTAGTFDS = 1.08 (6 of 6 replicates; controls 0 of 18)
- GQRLNSYGIS, VIYSDGYRTFYGDSVK, GRAAGTFDS = nd (0 of 6 replicates; controls 0 of 18)
- GFQLNDYGIS, VIYSDGRRTFYGDSVK, GRVAVTFFS = -0.12 (6 of 6 replicates; controls 0 of 18)
- SFNLNSYGIS, VIYSDGRRTFYADSVK, GKTAGTFDS = 1.05 (6 of 6 replicates; controls 0 of 18)
- GFDLNSYGIS, VIYSDGRRTFYGDRVK, GKIAGTFDS = 1.13 (5 of 6 replicates; controls 0 of 18)
- GFGLNSYGIS, VIYSDGRRTFYKDSVK, GKTAGTFDS = 0.61 (6 of 6 replicates; controls 0 of 18)
- GFDLNSYGIS, VIYSDGRRTFYIDSVK, GRSAGTFDS = 0.94 (5 of 6 replicates; controls 0 of 18)
- GFTLNSYGIS, VIYSDGRRTFYGDDVK, GRNMGTFDS = nd (0 of 6 replicates; controls 0 of 18)
- GFTLNDYGIS, VIYSDGRRTFYGDSVE, GRAAGTFDS = 1.29 (6 of 6 replicates; controls 0 of 18)
- GFNLNSYGIS, VIYSDGRRAFYGDSVK, GRCAGHFDS = nd (0 of 6 replicates; controls 0 of 18)
- GFSLNSYGIS, VIYSDGRRTFYLDSVK, GKTAGTFDS = 1.11 (3 of 6 replicates; controls 0 of 18)
- GFTLNDYGIS, VIYSDGRRTFYGDSVK, GRRAGTFDS = 0.66 (6 of 6 replicates; controls 1 of 18)
- KFDLNSYGIS, VIYSDGKRTFYDDSVK, GREAGTFDS = 0.32 (6 of 6 replicates; controls 1 of 18)
- GFSLNSYGIS, VIYSDGRRTFYGDSVK, GEAAGTFDQ = 0.26 (6 of 6 replicates; controls 0 of 18)
- KFSLNEYGIS, VIYSDGRRTFYGDSVK, GRNAGTFDS = 1.55 (1 of 6 replicates; controls 1 of 18)
- GFTLNSYGIS, VIYSDGERTFYGDKVK, GEAAGTFDS = 1.73 (1 of 6 replicates; controls 1 of 18)
- GADLNEYGIS, VIYSDGRRTFYGDSVK, GEAAGTFDL = 1.66 (2 of 6 replicates; controls 0 of 18)
- GFTLESYGIS, VIYADGRRTFYGDHVK, GRAAGTFKS = 1.18 (6 of 6 replicates; controls 0 of 18)
- GFDLNSYGIS, VIYSDGRRTAYGDSVK, GRAYGTFDS = nd (0 of 6 replicates; controls 0 of 18)
- GFWLNEYGIS, VIYSDGRRTMYGDSVK, GRTAGTFDS = 0.79 (6 of 6 replicates; controls 0 of 18)
- GFMLNEYGIS, VIYSDGRRTVYTDSVK, GRFAGTFDS = 1.63 (6 of 6 replicates; controls 1 of 18)
- GFNLNSYGIS, VIYSDGRRTFYGDAVK, GRQAGTFDS = 2.41 (3 of 6 replicates; controls 0 of 18)
- GFQLNTYGIS, VIYSDGRRTFYVDSVK, GKAAGTFDS = 1.35 (2 of 6 replicates; controls 0 of 18)
- GFTLNSYGIS, VIYSDGHRTFYSDSVK, GQLAGTFDS = 0.70 (6 of 6 replicates; controls 0 of 18)
- GFGLNSYGIS, VIYSDGRRTFYSDSVK, GKQAGTFDS = -0.25 (6 of 6 replicates; controls 0 of 18)
- GFSLNEYGIS, VIYSDGRRTFYGDSVK, GRAADTFDQ = 3.39 (3 of 6 replicates; controls 0 of 18)
- GFTLNSYGIS, VIYSDGRRTIYIDSVK, GRNALTFDS = nd (0 of 6 replicates; controls 0 of 18)
- GFSLNEYGIS, VIYSDGRRTFYADDVK, GKAAGTFDS = -0.04 (6 of 6 replicates; controls 1 of 18)
- GNSLNEYGIS, VIYSDGRRTFYGDSVK, GRTAGTFDS = nd (0 of 6 replicates; controls 0 of 18)

Top 3 of the variants detected in all replicates, tightest first:

CDR-H1,CDR-H2,CDR-H3,"mean, log10 nM",replicates with signal,control signals
GFGLNSYGIS,VIYSDGRRTFYSDSVK,GKQAGTFDS,-0.25,6 of 6,0 of 18
GFQLNDYGIS,VIYSDGRRTFYGDSVK,GRVAVTFFS,-0.12,6 of 6,0 of 18
GFSLNEYGIS,VIYSDGRRTFYADDVK,GKAAGTFDS,-0.04,6 of 6,1 of 18

Of ten entries with the parent sequence, four were seen in most replicates (averages 0.34 to 2.37), three in one and three in none, so single entries are noisy.
In the paper, a design with two or fewer of six values counts as a poor binder.
A sequence measured in both rounds can read differently, since the two assays cover different ranges.
Background: pairings of all heavy chain designs with three empty control strains gave a value in 1% of cases (median 2.08, 5th percentile 0.84). Values in that range, when seen in few replicates, are hard to tell from nonspecific mating. For each scFv, signals with the empty controls are counted beside the result.